These are literature values, as cited in patent US6548307B2, “Determination of logP coefficients via a RP-HPLC column” (Pfizer Inc., priority 2000, dated 2003).

The conditions of this data set: Shake-flask data from literature references; cited from earlier work.

In the case of `c1ccc2ccccc2c1` [Naphthalene], the logPoct is on record as 3.37.
